Data on three molecules can be found in patent US10183915B2, “Axially chiral isomers, and preparation methods therefor and pharmaceutical uses thereof” (MEDSHINE DISCOVERY INC., priority 2015, dated 2019).

Protein sequences, listed by entry. Tags and fused reporters are not part of them. Lines headed by an entry give the natural chain unless they say otherwise; changes in a name come on top.
UniProt Q96S37: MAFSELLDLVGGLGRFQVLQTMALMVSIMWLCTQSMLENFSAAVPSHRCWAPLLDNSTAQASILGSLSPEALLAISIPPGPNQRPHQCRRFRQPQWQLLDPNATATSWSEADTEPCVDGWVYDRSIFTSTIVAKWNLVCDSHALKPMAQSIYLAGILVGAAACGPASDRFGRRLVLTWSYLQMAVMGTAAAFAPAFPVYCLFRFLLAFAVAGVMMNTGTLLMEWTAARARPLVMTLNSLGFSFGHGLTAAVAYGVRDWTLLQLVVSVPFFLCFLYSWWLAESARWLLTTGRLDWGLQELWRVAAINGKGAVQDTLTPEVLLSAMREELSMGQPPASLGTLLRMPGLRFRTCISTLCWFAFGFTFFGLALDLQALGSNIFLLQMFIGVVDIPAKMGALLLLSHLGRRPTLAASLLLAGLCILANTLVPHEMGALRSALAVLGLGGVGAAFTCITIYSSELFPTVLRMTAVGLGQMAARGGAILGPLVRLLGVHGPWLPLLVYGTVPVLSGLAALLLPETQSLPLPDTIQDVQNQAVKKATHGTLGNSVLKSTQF

The target of the assay is T1, human URAT1 (Homo sapiens, UniProt Q96S37).
T1 construct: host or cells: HEK293
The assay can be described thus: Inhibition of URAT1-mediated uptake of 14C-labeled uric acid in stably transfected HEK293 cells. It counts as cell-based. The conditions noted are these: 14C-uric acid 50 μM, n = 3, read-out: IC50 of URAT-1 inhibitory effect.

pIC50: −log10 of the molar value.

Regarding `O=C(O)CSc1nnc(Br)n1-c1ccc(C2CC2)c2ccccc12` (single isomer, unassigned) [(−)-Lesinurad], the pIC50 was 4.76.

In the case of `O=C(O)CSc1nnc(Br)n1-c1ccc(C2CC2)c2ccccc12` (single isomer, unassigned) [(+)-Lesinurad], the negative logarithm of the IC50 (pIC50) is 5.42.

In the case of `O=C(O)CSc1nnc(Br)n1-c1ccc(C2CC2)c2ccccc12` (racemic) [(±)-Lesinurad, Lesinurad, reference compound], the negative-log IC50 (pIC50) is 4.93.

In general, pIC50 refers to the IC50 on a negative log10 scale, so that one unit is a factor of ten.
